Molecular target: degron-G-PRO1-V (Saccharomyces cerevisiae, UniProt P0CY08)
Experiment: HIS3 reporter growth assay, strain PJ69-4a
Format: cell-based, yeast
Conditions: HIS3 reporter strain PJ69-4a

Sequences of proteins named here, by UniProt entry; tags and fusion partners are left off. A change or cut given only in a name is not applied to a line headed by its entry.
UniProt P0CY08: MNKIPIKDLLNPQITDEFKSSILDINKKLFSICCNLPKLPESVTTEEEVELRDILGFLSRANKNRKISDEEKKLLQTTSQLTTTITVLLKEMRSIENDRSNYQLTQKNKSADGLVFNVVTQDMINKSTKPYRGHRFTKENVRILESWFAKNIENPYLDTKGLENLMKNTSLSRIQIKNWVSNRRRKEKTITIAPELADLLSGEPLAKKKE

**Q.** For pregnenolone, which “stimulation of growth of degron-G-PRO1-V” value is on record?
**A.** Its value is “not”.

From patent publication US20170198363A1, “COMPOSITIONS AND METHODS FOR DETECTION OF SMALL MOLECULES” (COLORADO STATE UNIVERSITY RESEARCH FOUNDATION, priority 2015, published 2017)
